Patent US11247972B2, “Compositions and methods for treating toxoplasmosis, cryptosporidiosis, and other apicomplexan protozoan related diseases” (University of Washington through its Center for …, priority 2010, dated 2022)

System: P. falciparum
Assay: P. falciparum NF54 gametocyte exflagellation with compound in blood
Format: cell-based, Plasmodium falciparum
Conditions: 0.3 μM, repeat experiment

Structure (SMILES): CCOc1ccc2cc(-c3nn(CC4CCNCC4)c4ncnc(N)c34)ccc2c1 [Compound 29, 3-(6-ethoxynaphthalen-2-yl)-1-(piperidin-4-ylmethyl)-1H-pyrazolo[3,4-d]pyrimidin-4-amine]
- suppression of exflagellation events: > 90%
